Results published in PMC9127186, “Molecular Basis Underlying Hepatobiliary and Renal Excretion of Phenolic Acids of Salvia miltiorrhiza Roots (Danshen)” (Frontiers in Pharmacology, 2022).

Substrate: O=C(O)C(O)Cc1ccc(O)c(O)c1
Experiment: cells, lysate or membranes named
Conditions: 5 min incubation, concentrations in Table 1, 37.0 °C

B1: human OAT2 (Homo sapiens) (protein)
chain: MGFEELLEQVGGFGPFQLRNVALLALPRVLLPLHFLLPIFLAAVPAHRCALPGAPANFSHQDVWLEAHLPREPDGTLSSCLRFAYPQALPNTTLGEERQSRGELEDEPATVPCSQGWEYDHSEFSSTIATEWDLVCEQKGLNRAASTFFFAGVLVGAVAFGYLSDRFGRRRLLLVAYVSTLVLGLASAASVSYVMFAITRTLTGSALAGFTIIVMPLELEWLDVEHRTVAGVLSSTFWTGGVMLLALVGYLIRDWRWLLLAVTLPCAPGILSLWWVPESARWLLTQGHVKEAHRYLLHCARLNGRPVCEDSFSQEAVSKVAAGERVVRRPSYLDLFRTPRLRHISLCCVVVWFGVNFSYYGLSLDVSGLGLNVYQTQLLFGAVELPSKLLVYLSVRYAGRRLTQAGTLLGTALAFGTRLLVSSDMKSWSTVLAVMGKAFSEAAFTTAYLFTSELYPTVLRQTGMGLTALVGRLGGSLAPLAALLDGVWLSLPKLTYGGIALLAAGTALLLPETRQAQLPETIQDVERKSAPTSLQEEEMPMKQVQN
- Vmax (other: human hepatic sinusoidal uptake OAT2 (also renal basolateral)): 0.00747 ± 0.000308 µmol/min/mg

B2: rat Oat2 (Rattus norvegicus) (protein)
chain: MGFEDLLDKVGGFGPFQLRNLVLMALPRMLLPMHFLLPVFMAAVPAHHCALPGAPANLSHQDLWLEAHLPRETDGSFSSCLRFAYPQTVPNVTLGTEVSNSGEPEGEPLTVPCSQGWEYDRSEFSSTIATEWDLVCQQRGLNKITSTCFFIGVLVGAVVYGYLSDRFGRRRLLLVAYVSSLVLGLMSAASINYIMFVVTRTLTGSALAGFTIIVLPLELEWLDVEHRTVAGVISTVFWSGGVLLLALVGYLIRSWRWLLLAATLPCVPGIISIWWVPESARWLLTQGRVEEAKKYLLSCAKLNGRPVGEGSLSQEALNNVVTMERALQRPSYLDLFRTSQLRHISLCCMMVWFGVNFSYYGLTLDVSGLGLNVYQTQLLFGAVELPSKIMVYFLVRRLGRRLTEAGMLLGAALTFGTSLLVSLETKSWITALVVVGKAFSEAAFTTAYLFTSELYPTVLRQTGLGLTALMGRLGASLAPLAALLDGVWLLLPKVAYGGIALVAACTALLLPETKKAQLPETIQDVERKSTQEEDV
- Vmax (other: rat hepatic sinusoidal uptake Oat2 (also renal apical)): 0.00144 ± 7.4e-05 µmol/min/mg

B3: human OAT3 (Homo sapiens) (protein)
chain: MTFSEILDRVGSMGHFQFLHVAILGLPILNMANHNLLQIFTAATPVHHCRPPHNASTGPWVLPMGPNGKPERCLRFVHPPNASLPNDTQRAMEPCLDGWVYNSTKDSIVTEWDLVCNSNKLKEMAQSIFMAGILIGGLVLGDLSDRFGRRPILTCSYLLLAASGSGAAFSPTFPIYMVFRFLCGFGISGITLSTVILNVEWVPTRMRAIMSTALGYCYTFGQFILPGLAYAIPQWRWLQLTVSIPFFVFFLSSWWTPESIRWLVLSGKSSKALKILRRVAVFNGKKEEGERLSLEELKLNLQKEISLAKAKYTASDLFRIPMLRRMTFCLSLAWFATGFAYYSLAMGVEEFGVNLYILQIIFGGVDVPAKFITILSLSYLGRHTTQAAALLLAGGAILALTFVPLDLQTVRTVLAVFGKGCLSSSFSCLFLYTSELYPTVIRQTGMGVSNLWTRVGSMVSPLVKITGEVQPFIPNIIYGITALLGGSAALFLPETLNQPLPETIEDLENWSLRAKKPKQEPEVEKASQRIPLQPHGPGLGSS
- Vmax (other: human renal basolateral uptake OAT3): 0.000171 µmol/min/mg

B4: human OAT4 (Homo sapiens) (protein)
chain: MAFSKLLEQAGGVGLFQTLQVLTFILPCLMIPSQMLLENFSAAIPGHRCWTHMLDNGSAVSTNMTPKALLTISIPPGPNQGPHQCRRFRQPQWQLLDPNATATSWSEADTEPCVDGWVYDRSVFTSTIVAKWDLVCSSQGLKPLSQSIFMSGILVGSFIWGLLSYRFGRKPMLSWCCLQLAVAGTSTIFAPTFVIYCGLRFVAAFGMAGIFLSSLTLMVEWTTTSRRAVTMTVVGCAFSAGQAALGGLAFALRDWRTLQLAASVPFFAISLISWWLPESARWLIIKGKPDQALQELRKVARINGHKEAKNLTIEVLMSSVKEEVASAKEPRSVLDLFCVPVLRWRSCAMLVVNFSLLISYYGLVFDLQSLGRDIFLLQALFGAVDFLGRATTALLLSFLGRRTIQAGSQAMAGLAILANMLVPQDLQTLRVVFAVLGKGCFGISLTCLTIYKAELFPTPVRMTADGILHTVGRLGAMMGPLILMSRQALPLLPPLLYGVISIASSLVVLFFLPETQGLPLPDTIQDLESQKSTAAQGNRQEAVTVESTSL
- Vmax (other: human renal apical uptake OAT4): 0.0012 ± 0.00014 µmol/min/mg

B5: rat Oat1 (Rattus norvegicus) (protein)
chain: MAFNDLLKQVGGVGRFQLIQVTMVVAPLLLMASHNTLQNFTAAIPPHHCRPPANANLSKDGGLEAWLPLDKQGQPESCLRFTSPQWGPPFYNGTEANGTRVTEPCIDGWVYDNSTFPSTIVTEWNLVCSHRAFRQLAQSLYMVGVLLGAMVFGYLADRLGRRKVLILNYLQTAVSGTCAAYAPNYTVYCVFRLLSGMSLASIAINCMTLNVEWMPIHTRAYVGTLIGYVYSLGQFLLAGIAYAVPHWRHLQLVVSVPFFIAFIYSWFFIESARWYSSSGRLDLTLRALQRVARINGKQEEGAKLSIEVLRTSLQKELTLSKGQASAMELLRCPTLRHLFLCLSMLWFATSFAYYGLVMDLQGFGVSMYLIQVIFGAVDLPAKFVCFLVINSMGRRPAQMASLLLAGICILVNGIIPKSHTIIRTSLAVLGKGCLASSFNCIFLYTGELYPTVIRQTGLGMGSTMARVGSIVSPLVSMTAEFYPSMPLFIFGAVPVVASAVTALLPETLGQPLPDTVQDLKSRSRGKQNQQQQEQQKQMMPLQASTQEKNGL
- Vmax (other: rat renal basolateral uptake Oat1): 0.000636 µmol/min/mg

B6: rat Oat3 (Rattus norvegicus) (protein)
chain: MTFSEILDRVGSMGPFQYLHVTLLALPVLGIANHNLLQIFTATTPVHHCRPPPNASIGPWVLPLDPNGKPEKCLRFVHLPNASLPNDTQRATEPCLDGWIYNSTRDTIVIEWDLVCSSNKLKEMAQSIFMAGILVGGPVIGELSDRFGRKPILTWSYLMLAASGSGAAFSPSLPVYMIFRFLCGCSISGISLSTVILNVEWVPTSMRAISSTSIGYCYTIGQFILSGLAYAIPQWRWLQLTSSAPFFIFSLLSWWVPESIRWLVLSGKYSKALKTLQRVATFNGKKEEGKKLTIEELKFNLQKDITSAKVKYGLSDLFRVSILRRVTFCLSLAWFSTGFAYYSLAMGVEEFGVNIYILQIIFGGVDIPAKFITILSLSYLGRRITQSFLLLLAGGAILALIFVPSEMQLLRTALAVFGKGCLSGSFSCLFLYTSELYPTVLRQTGMGISNVWARVGSMIAPLVKITGELQPFIPNVIFGTTALLGGSAAFFLLETLNRPLPETIEDIQNWHKQVQKTKQESEAEKASQIIPLKTGG
- Vmax (other: rat renal basolateral uptake Oat3): 0.000252 µmol/min/mg

B7: human OAT1 (Homo sapiens) (protein)
chain: MAFNDLLQQVGGVGRFQQIQVTLVVLPLLLMASHNTLQNFTAAIPTHHCRPPADANLSKNGGLEVWLPRDRQGQPESCLRFTSPQWGLPFLNGTEANGTGATEPCTDGWIYDNSTFPSTIVTEWDLVCSHRALRQLAQSLYMVGVLLGAMVFGYLADRLGRRKVLILNYLQTAVSGTCAAFAPNFPIYCAFRLLSGMALAGISLNCMTLNVEWMPIHTRACVGTLIGYVYSLGQFLLAGVAYAVPHWRHLQLLVSAPFFAFFIYSWFFIESARWHSSSGRLDLTLRALQRVARINGKREEGAKLSMEVLRASLQKELTMGKGQASAMELLRCPTLRHLFLCLSMLWFATSFAYYGLVMDLQGFGVSIYLIQVIFGAVDLPAKLVGFLVINSLGRRPAQMAALLLAGICILLNGVIPQDQSIVRTSLAVLGKGCLAASFNCIFLYTGELYPTMIRQTGMGMGSTMARVGSIVSPLVSMTAELYPSMPLFIYGAVPVAASAVTVLLPETLGQPLPDTVQDLESRWAPTQKEAGIYPRKGKQTRQQQEHQKYMVPLQASAQEKNGL
- Vmax (other: human renal basolateral uptake OAT1): 0.00104 ± 2.2e-05 µmol/min/mg
